# Molecular target: APOL1 (Homo sapiens, UniProt O14791)
# The chains behind the UniProt entries cited, without tags or fusion partners.
# UniProt O14791, whole entry S342G/I384M: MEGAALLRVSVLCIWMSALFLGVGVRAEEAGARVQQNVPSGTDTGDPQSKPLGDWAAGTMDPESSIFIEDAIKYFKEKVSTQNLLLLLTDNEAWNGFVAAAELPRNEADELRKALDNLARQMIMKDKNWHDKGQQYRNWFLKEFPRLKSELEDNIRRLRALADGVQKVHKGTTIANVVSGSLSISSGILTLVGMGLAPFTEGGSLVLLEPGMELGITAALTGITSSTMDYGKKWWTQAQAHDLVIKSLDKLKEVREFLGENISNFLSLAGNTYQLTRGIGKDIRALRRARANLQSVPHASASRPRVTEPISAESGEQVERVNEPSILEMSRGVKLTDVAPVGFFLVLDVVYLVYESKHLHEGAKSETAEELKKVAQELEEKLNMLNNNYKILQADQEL
# Assay: MultiTox-Fluor Multiplex Cytotoxicity Assay in tet-inducible APOL1 T-REx-HEK293 cells
# Conditions: read-out: IP50 (i.e., IC50 for cell proliferation), 50 ng/mL tet, 24 hours, ratio of dead to live cells
# Procedure: The MultiTox-Fluor Multiplex Cytotoxicity Assay is a single-reagent-addition, homogeneous, fluorescence assay that measures the number of live and dead cells simultaneously in culture wells. The assay measures cell viability and cytotoxicity by detecting two distinct protease activities. The live-cell protease activity is restricted to intact viable cells and is measured using a fluorogenic, cell-permeant peptide glycyl-phenylalanylamino fluorocoumarin (GF-AFC) substrate. The substrate enters intact cells, where it is cleaved to generate a fluorescent signal proportional to the number of living cells. […]
# Briefly, the tet-inducible transgenic APOL1 T-REx-HEK293 cell lines were incubated with 50 ng/mL tet to induce APOL1 in the presence of 3-(2-(4-fluorophenyl)-1H-indol-3-yl)-N-((3S,4R)-4-hydroxy-2-oxopyrrolidin-3-yl)propenamide at 10.03, 3.24, 1.13, 0.356, 0.129, 0.042, 0.129, 0.0045, 0.0015, 0.0005 μM in duplicate for 24 hours in a humidified 37° C. incubator. […] The plate was read on the EnVision plate reader. A ratio of dead to live cells was used to normalize, and data was imported, analyzed, and fit using Genedata Screener (Basel, Switzerland) software. […]
# Assay ready plates from the Global Compound Archive were ordered using template 384_APOL1Cell_DR10n2_50 uM_v3. […]
structure (smiles),measurement,value
CCc1cc2c(s1)CCOC21CCNC(c2cc(C)no2)C1 (stereo not shown),IC50,100 to 500 nM
